Common to all, as to type: cell-based
In one assay the target is ATR kinase (Homo sapiens (Human), UniProt Q13535). The experiment in a line: Assay b) ATR cellular potency assay (pChk1 Ser345 in HT29 cells treated with 4NQO). The conditions noted are these: HT29 cells, pChk1 Ser345 after 4NQO; geometric mean where repeated; read-out: Assay b) ATR Cell IC50.
For another assay, the target named is mTOR (Homo sapiens (Human), UniProt P42345). The experiment in a line: Assay d) mTOR cellular potency assay (phospho-AKT Ser473 in MDA-MB-468 cells). The conditions noted are these: MDA-MB-468 cells, phospho-AKT Ser473, 2 h; geometric mean where repeated; read-out: Assay d) mTOR Cell IC50.
The next assay concerns the target PI3K-α (Homo sapiens, UniProt P42336). The experiment in a line: Assay c) PI3K cellular potency assay (phospho-Akt T308 ELISA in BT474 cells). The conditions noted are these: BT474 cells, phospho-Akt T308, 2 h; geometric mean where repeated; read-out: Assay c) PI3Kα Cell IC50. (In general: ELISA stands for enzyme-linked immunosorbent assay.)
The target in another assay is ATM kinase (Homo sapiens (Human), UniProt Q13315). The experiment in a line: Assay a) ATM cellular potency assay (pATM Ser1981 in X-ray irradiated HT29 cells). The note with it: HT29 cells, pATM Ser1981 after X-ray irradiation; geometric mean where repeated; read-out: Assay a) ATM Cell IC50.

The structures appear in SMILES notation. Structures can show the parent of a compound that is named as a salt. Some results are limits rather than exact numbers.

Data on three molecules can be found in US9428503B2, “Imidazo[4,5-c]quinolin-2-one compounds and their use in treating Cancer” (AstraZeneca AB, priority 2014, dated 2016).

In general, IC50 refers to the concentration needed to halve the response being measured.

`CN(C)CCCOc1ccc(-c2ccc3ncc4c(c3c2)n(C2CCOCC2)c(=O)n4C)cn1` [Example 1, 8-[6-(3-Dimethylaminopropoxy)pyridin-3-yl]-3-methyl-1-(oxan-4-yl)imidazo[5,4-c]quinolin-2-one]: the IC50 came out at 6.16 µM at ATR kinase and 610 nM at mTOR. Take `Cn1c(=O)n([C@@H]2CCOC2)c2c3cc(-c4ccc(OCCCN5CCCCC5)nc4)ccc3ncc21` [Example 54, 3-methyl-8-[6-[3-(1-piperidyl)propoxy]-3-pyridyl]-1-[(3R)-tetrahydrofuran-3-yl]imidazo[4,5-c]quinolin-2-one methane sulfonic acid salt]: the IC50 at PI3K-α is more than 16.7 µM. For the molecule `CO[C@@H]1CC[C@@H](n2c(=O)n(C)c3cnc4ccc(-c5ccc(OCCCN6CCCC6)nc5)cc4c32)C1` [Example 67, 1-[(1R,3R)-3-methoxycyclopentyl]-3-methyl-8-[6-(3-pyrrolidin-1-ylpropoxy)-3-pyridyl]imidazo[4,5-c]quinolin-2-one], the IC50 on ATM kinase is less than 0.0525 nM.
